Bioassay records from PubChem BioAssay.
Lamin A splicing – LMNA splicing modulation; HeLa LMNA splicing GFP/RFP minigene ratio, 48 h; Potency, µM (series often up to 46.1 µM), hits mostly inhibitors; 200,000 compounds, 0.01% hits; AID 1487; active means well fitted inhibition curve with a large enough effect in the signal ratio, with a control signal flat, not every such curve was filed as active; inconclusive means small, poorly fitted or top-dose-only effect, or effect the other way, or a change in a side signal; the % refers to the signal ratio
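S3 HeLa cells stably expressing lamin A-EGFP splicing minigene plus DsRed2, 600 cells/well, 48 h compound exposure at 37C. Laser-scanning cytometry; analysed as GFP (500-530 nm)/RFP (575-640 nm) total intensity ratio; 0.5% DMSO vehicle.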
Luc counter – counter-screen: inhibitors of Kinase-Glo firefly luciferase; Potency, µM (series often up to 38.3 µM), usual class: inhibitors; Q27757; AID 1379; Kinase-Glo luciferase, ATP luminescence, 8 min; 200,000 compounds, 0.28% hits; active means well fitted curve in the direction sought with a large enough effect; inconclusive means small, poorly fitted or top-dose-only effect, or another doubt; inactive means no such curve, though single readings can be large; an effect the other way counts as inactive or inconclusive; further: nearly all actives have a fitted effect of over 60% in size
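Compound is pinned into ATP-containing buffer (10 uM ATP, imidazole pH 7.2, 7 mM MgCl2). Kinase-Glo luciferase reagent is then added. Light output is recorded following an 8-min room-temperature incubation.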
Tb PFK block – inhibitors of T. brucei phosphofructokinase; 330,000 compounds, 0.17% hits; T. brucei PFK, ADP-Glo luminescence; Potency, µM (series often up to 57.5 µM), actives largely listed as inhibitors; active means well fitted curve in the direction sought with a large enough effect; inconclusive means small, poorly fitted or top-dose-only effect, or another doubt; inactive means no such curve, though single readings can be large; an effect the other way counts as inactive or inconclusive; further: nearly all actives have a fitted effect of over 60% in size
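Activity is normalized to no-enzyme wells (full inhibition) and 1.25 nM enzyme wells (no inhibition). Reaction: 0.5 mM F6P, 0.1 mM ATP, 45 min RT, ADP-Glo luminescence; concentration-response curves fitted and classed by quality.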
Rango-impB inh – Rango-importin beta binding inhibition. Q14974. Rango CFP/YFP FRET sensor + importin beta, 45 min. Potency, µM (titrated, usually from 92.2 µM). 340,000 compounds, 0.031% hits. AID 540263; further: nearly all actives have a fitted effect of over 15% in size
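Inhibition scored from the CFP 486 nm/YFP 530 nm FRET ratio 45 min after adding 0.125 microM importin beta to 50 nM Rango biosensor preincubated 5 min with compound (room temperature, PBS with DTT, Tween-20, BSA). No-importin wells as positive control.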
BCR signal inh – blocks chronic active B-cell receptor signaling; ABC-DLBCL IkBa-CBG/CBR reporter, luminescence ratio, 4 h; Potency, µM (series often up to 46.1 µM), most hits filed as inhibitors; 340,000 compounds, 0.05% hits; AID 493014; active means well fitted inhibition curve with a large enough effect in the signal ratio, with a control signal flat, not every such curve was filed as active; inconclusive means small, poorly fitted or top-dose-only effect, or effect the other way, or a change in a side signal; the % refers to the signal ratio
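Cell line TMD8 (human ABC DLBCL), stably expressing tet-inducible CBG68-IkBa fusion and CBR; IMDM/0.5% FBS; cpd up to 46 uM; dox induction, 4 h, 37C/5% CO2; dual luminescence; green/red ratio; MG132 control.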
Rango release inh – inhibitors of RanGTP-induced Rango-importin beta complex dissociation; Potency, µM (doses to about 46.1 µM); O95149+P62826; AID 540253; Biochemical FRET Rango-importin beta, RanGTP-induced dissociation; 340,000 compounds, 0.071% hits; further: nearly all actives have a fitted effect of over 45% in size
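Rango/importin beta premix (0.1/0.25 uM final), PBS + 1 mM DTT + 0.02% Tween-20 + 0.1% BSA; cpd 5 min RT; FRET pre-read; + RanGTP-RCC1 (0.6 uM Ran, 2 mM GTP, 0.2 uM RCC1); 45 min RT; FRET post-read, ex 430, em 486/530 nm.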
Hits are given with their value. Most compounds without a hit are left out; they make up all but 0.44% or so of the library. Unless noted, the call rests on the fitted dose curve.

Results for CCOC(=O)c1sc(NC(=O)c2ccccc2OC)nc1C ?
Lamin A splicing: inactive; Luc counter: 10µM; Tb PFK block: inactive; Rango-impB inh: inactive; BCR signal inh: inconclusive; Rango release inh: inactive

Results for O=C1/C(=N\S(=O)(=O)c2cccs2)C([n+]2cccc(Cc3ccccc3)c2)=C([O-])c2ccccc21 ?
Tb PFK block: inactive; Rango-impB inh: 58µM; BCR signal inh: inactive; Rango release inh: inactive

How did CCc1n[nH]c(=S)n1/N=C/c1ccc(N(CC)CC)cc1 do in these assays?
Luc counter: inactive; Tb PFK block: inactive; Rango-impB inh: inactive; BCR signal inh: 11.2µM; Rango release inh: inactive

Results for COc1cccc(/C=N/Nc2nccnc2Cl)c1O ?
Luc counter: 11.2µM; Tb PFK block: inactive; Rango-impB inh: inactive; BCR signal inh: inconclusive; Rango release inh: inactive

How did Oc1ccccc1/C=N/Nc1nccnc1Cl do in these assays?
Lamin A splicing: inconclusive; Luc counter: inconclusive; Tb PFK block: inactive; Rango-impB inh: inactive; BCR signal inh: inconclusive; Rango release inh: inactive

Results for Oc1ccc(/C=N/Nc2nccnc2Cl)c(O)c1 ?
Lamin A splicing: inconclusive; Luc counter: 3.55µM; Tb PFK block: inactive; Rango-impB inh: inactive; BCR signal inh: inconclusive; Rango release inh: inactive

Results for COC(=O)c1sccc1N/N=C/c1cccc(OC)c1O ?
Lamin A splicing: inactive; Luc counter: 10µM; Tb PFK block: inactive; Rango-impB inh: inactive; BCR signal inh: inconclusive; Rango release inh: inactive

How did COc1ccccc1/C=N/Nc1nncc2ccccc12 do in these assays?
Lamin A splicing: inactive; Luc counter: inactive; Tb PFK block: inactive; Rango-impB inh: inactive; BCR signal inh: inconclusive; Rango release inh: inactive

Results for COc1ccc(/C=N/Nc2nncc3ccccc23)cc1 ?
Lamin A splicing: inactive; Luc counter: 11.2µM; Tb PFK block: inactive; Rango-impB inh: inactive; BCR signal inh: inconclusive; Rango release inh: inactive

How did COC(=O)c1sccc1N/N=C/c1ccc(OC)c(OC)c1OC do in these assays?
Lamin A splicing: inconclusive; Luc counter: inactive; Tb PFK block: inactive; Rango-impB inh: inconclusive; BCR signal inh: inconclusive; Rango release inh: inactive

Results for COc1cccc(/C=N/Nc2ncnc(Cl)c2N)c1O ?
Lamin A splicing: inconclusive; Luc counter: inactive; Tb PFK block: inactive; Rango-impB inh: inactive; BCR signal inh: inconclusive; Rango release inh: inactive

Results for CCOC(=O)Cc1csc(N/C(=N/S(=O)(=O)c2ccc(Cl)cc2)c2ccccc2)n1 ?
Lamin A splicing: inactive; Luc counter: inactive; Tb PFK block: inactive; Rango-impB inh: inactive; BCR signal inh: inactive; Rango release inh: inactive

How did COc1ccc(C(=O)N/N=C/c2cn[nH]c2-c2ccc(OC)cc2OC)cc1 do in these assays?
Lamin A splicing: inconclusive; Luc counter: inactive; Tb PFK block: inactive; Rango-impB inh: inactive; BCR signal inh: inactive; Rango release inh: inactive

How did COc1ccc(/C=N/Nc2nccnc2Cl)cc1 do in these assays?
Lamin A splicing: inactive; Luc counter: 7.08µM; Tb PFK block: inactive; Rango-impB inh: inconclusive; BCR signal inh: inconclusive; Rango release inh: inactive

Results for COc1ccc(/C=N/Nc2nonc2N)c(OC)c1 ?
Luc counter: inactive; Tb PFK block: inactive; Rango-impB inh: inactive; BCR signal inh: inactive; Rango release inh: inactive

Results for COc1ccc(/C=N/Nc2nccnc2Cl)c(OC)c1 ?
Lamin A splicing: inactive; Luc counter: 12.6µM; Tb PFK block: inactive; Rango-impB inh: inactive; BCR signal inh: inconclusive; Rango release inh: inactive

Results for CCn1ccnc1CNC(=O)c1cc(COc2ccc(F)cc2F)on1 ?
Lamin A splicing: inactive; Luc counter: inactive; Tb PFK block: inactive; Rango-impB inh: inactive; BCR signal inh: inactive; Rango release inh: inactive

How did COc1cc2c(cc1OC)C(SC)=NC(C)(C)C2 do in these assays?
Lamin A splicing: inactive; Luc counter: inactive; Tb PFK block: inactive; Rango-impB inh: inconclusive; BCR signal inh: 16.4µM; Rango release inh: inactive

What do the screens show for `Cc1ccc(CN(Cc2ccc(C)o2)C(=S)NCC(=O)O)cc1`?
Lamin A splicing: inactive; Luc counter: inactive; Tb PFK block: inactive; Rango-impB inh: inactive; BCR signal inh: inactive; Rango release inh: inactive

Results for O=S(=O)(NCc1ccc2c(c1)OCO2)c1ccccc1F ?
Tb PFK block: inactive; Rango-impB inh: inactive; BCR signal inh: inactive; Rango release inh: inactive

What do the screens show for `CCOC(=O)c1ccc(NC(=O)CSc2nnc(C3CC3)n2C)cc1`?
Lamin A splicing: inactive; Luc counter: inactive; Tb PFK block: inactive; Rango-impB inh: inactive; BCR signal inh: inactive; Rango release inh: inactive

What do the screens show for `Cc1nn(C)cc1C1C2=C(CC(C)(C)CC2=O)N(c2ccccc2)C2=C1C(=O)CC(C)(C)C2`?
Lamin A splicing: inactive; Luc counter: inactive; Tb PFK block: inactive; Rango-impB inh: inconclusive; BCR signal inh: inactive; Rango release inh: 8.2µM

What do the screens show for `COc1ccc(N2C3=C(C(=O)CC(C)(C)C3)C(c3ccccc3OC)C3=C2CC(C)(C)CC3=O)cc1`?
Tb PFK block: inactive; Rango-impB inh: inconclusive; BCR signal inh: inactive; Rango release inh: inconclusive

Results for CC(=C/c1ccco1)/C=N/N1CCN(c2ccccc2)CC1 ?
Lamin A splicing: inactive; Luc counter: 10µM; Tb PFK block: inactive; Rango-impB inh: inactive; BCR signal inh: inconclusive; Rango release inh: inactive

Results for CC(/C=N/N1CCN(c2ccccc2)CC1)=C\c1ccco1 ?
Lamin A splicing: inactive; Luc counter: 7.94µM; Tb PFK block: inactive; Rango-impB inh: inactive; BCR signal inh: inconclusive; Rango release inh: inactive

Results for COc1ccc(/C=N/NC(=O)c2ccncc2)cc1CN1CCOCC1 ?
Tb PFK block: inactive; Rango-impB inh: inactive; BCR signal inh: inactive; Rango release inh: inactive

Results for Cc1ccc(-c2cc(C(=O)Nc3cccc(S(=O)(=O)N(C)C)c3)c3ccccc3n2)o1 ?
Tb PFK block: inactive; Rango-impB inh: inconclusive; BCR signal inh: inactive; Rango release inh: 14.6µM

How did Cc1cc(C)c2[nH]c(O)c(N=NC3=NC(=O)CS3)c2c1 do in these assays?
Tb PFK block: inactive; Rango-impB inh: inactive; BCR signal inh: inactive; Rango release inh: inactive

Results for Cc1cc(SCC(=O)NCC2CCCO2)nc2ccccc12 (stereo not drawn) ?
Tb PFK block: inactive; Rango-impB inh: 36.6µM; BCR signal inh: inactive; Rango release inh: inactive

How did Cc1cc(SCC(=O)NC2CC2)nc2ccccc12 do in these assays?
Tb PFK block: inactive; Rango-impB inh: inactive; BCR signal inh: inconclusive; Rango release inh: inactive

What do the screens show for `CCOC(=O)c1ccc(NC(=S)NCCCN2CCN(C3CCCCC3)CC2)cc1`?
Lamin A splicing: inactive; Luc counter: inactive; Tb PFK block: inactive; Rango-impB inh: inactive; BCR signal inh: inactive; Rango release inh: inactive
